Earlier results as cited in PMC11571012, “Synthesis and Preclinical Evaluation of a Bispecific PSMA-617/RM2 Heterodimer Targeting Prostate Cancer” (ACS Medicinal Chemistry Letters, 2024).

Protein sequences, listed by entry. Tags and fused reporters are not part of them. Lines headed by an entry give the natural chain unless they say otherwise; changes in a name come on top.
UniProt P30550: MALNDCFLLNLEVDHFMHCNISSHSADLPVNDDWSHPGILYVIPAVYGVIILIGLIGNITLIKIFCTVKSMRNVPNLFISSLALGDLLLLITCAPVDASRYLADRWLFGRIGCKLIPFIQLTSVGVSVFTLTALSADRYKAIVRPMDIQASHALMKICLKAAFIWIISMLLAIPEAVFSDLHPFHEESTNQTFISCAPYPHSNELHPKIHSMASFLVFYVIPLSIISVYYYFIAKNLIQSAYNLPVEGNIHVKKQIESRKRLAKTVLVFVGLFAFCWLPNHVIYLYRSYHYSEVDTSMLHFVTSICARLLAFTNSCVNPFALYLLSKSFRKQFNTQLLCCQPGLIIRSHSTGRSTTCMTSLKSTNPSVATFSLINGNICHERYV

Molecular target: GRPR in PC-3 cells (PSMA-, GRPR+) (Homo sapiens, UniProt P30550)
Conditions: read-out: IC50 of standard radioligand (GRPR); standard used at C = 50 pM; no reference given; cited from earlier work

Q: For “125I-[Tyr4]-BN (QQRYGNQWAVGHLM) [^125I-bombesin]”, which IC50 is on record?
A: 0.4 nM
